Patent US8163870B2, “Channel forming peptides” (Kansas State University Research Foundation, priority 2000, dated 2012)

Columns and labels:
cultured CF monolayers = assay: Glutathione transport in cultured CF monolayers; type: cell-based
[1] = Chemical cross-linking (BS3) and SDS-PAGE, oligomeric state of peptide in solution; type: physicochemical; conditions: SDS-PAGE of cross-linked peptide
Experimental: Chemical cross-linking: In order to visualize the oligomeric state of the peptide in solution a chemical cross-linking protocol was developed. Calculated amounts of each peptide were weighted out and dissolved in 1 mL of distilled water to make 1 mM stock solutions. A 100 mM stock solution of the chemical crosslinking reagent Bis[Sulfosuccinimidyl]suberate, BS^3, (Pierce Chemical Co., Rockford, Ill.) was prepared in dimethyl sulfoxide (DMSO). […] Sample were allowed to sit at room temperature for 15 minutes. 1-6 μL of 100 mM BS^3 was then added to the previously prepared peptide such that the crosslinking reagent was present in 20-fold excess. The final volume for each reaction was 100 μL. […] Each sample was then vacuum dried. Later dry samples were re-dissolved in 60 μL of distilled water along with 60 μL of a 2×-tricine SDS sample buffer (Novex, San Diego). All samples were then boiled at 100° C. for 5 minutes. 5 μL aliquots of each SDS boiled sample was then loaded into separate lanes of pre-cast, 1.0 mm, 10 well, 10-20% tricine gels (Novex, San Diego). Pre-made Novex tricine-SDS buffer was used in the electrophoresis. The reference well contained 1 μL of MultiMark® multi-colored molecular weight standard (Novex, San Diego). The electrophoresis was carried out at a constant 110 Volts for 90 minutes. […]

MDCK cells = type: cell-based, canine
Text: Cell culture: MDCK cells were a generous gift of Dr. Lawrence Sullivan (Kansas University Medical Center, Kansas City, Kans.). T84 cells were obtained from Dr. Daniel Devor (University of Pittsburgh, Pittsburgh, Pa.). MDCK and T84 cells were maintained with similar culture procedures. The culture medium was a 1:1 mixture of DMEM and Ham's F-12 (Gibco BRL, Grand Island, N.Y.) supplemented with 5% heat inactivated fetal bovine serum (BioWhittaker, Walkersville, Md.), and 1% penicillin and streptomycin (Gibco BRL). Cells were grown in plastic culture flasks in a humidified environment with 5% CO2 at 37° C. and passaged every 5-7 days. For Ussing chamber experiments, cells were plated on 1.13 cm^2 permeable supports (Snapwell™, Costar®, Cambridge, Mass.) at a density of approximately 1×10^6 cells/well and incubated in DMEM/F-12 supplemented with FBS and antibiotics (changed every other day) for 2-3 weeks prior to being mounted in modified Ussing flux chambers.
To form monolayers, the cells were plated onto the upper surface of a permeable membrane that forms the bottom of a plastic well. Two types were used. One was the Transwell™ insert (Costar®, Cambridge, Mass.) supported in a six-well tissue culture plate and the other type was the Snapwell™ (Costar®, Cambridge, Mass.). During incubation, the medium was replaced at 48-72 hour intervals. Confluent monolayers formed within 72 hours. Experiments were performed on the monolayers 6-9 days after the initial plating. Net fluid secretion responses were optimal after six days.
Solutions: Ringer solution was made fresh daily. The final concentration (in mM) was 120 NaCl, 25 NaHCO3 3.3 KH2HPO4, 0.8 K2HPO4, 1.2 MgCl2, 1.2 CaCl2, (290±2 mOsmol). All components of the Ringer solution were from Sigma (St. Louis, Mo.).
Epithelial electrical measurements: Transepithelial ion transport was evaluated in a modified Ussing chamber (Model DCV9, Navicyte, San Diego, Calif.). The Ussing chamber's fluid resistance compensation was completed in Ringer solution (see below). For electrical measurements cell monolayers were bathed in Ringer solution maintained at 37° C. and continuously bubbled with 5% CO2:95% O2. The transepithelial membrane potential (Vte) was clamped to zero and the transepithelial short circuit current (Isc), an indicator of net ion transport, was measured continuously with a voltage clamp apparatus (Model 558C, University of Iowa, Department of Bioengineering, Iowa City, Iowa). Data were digitally acquired at 1 Hz with a Macintosh computer (Apple Computer, Cuppertino, Calif.) using Aqknowledge software (ver. 3.2.6, BIOPAC Systems, Santa Barbara, Calif.) with an MP100A-CE interface.
Transepithelial ion transport was evaluated in a modified Ussing chamber (Model DCV9, Navicyte, San Diego, Calif.). […] The transepithelial membrane potential (Vte) was clamped to zero and the transepithelial short circuit current (Isc), an indicator of net ion transport, was measured continuously with a voltage clamp apparatus (Model 558C, University of Iowa, Department of Bioengineering, Iowa City, Iowa). […]
MDCK cell monolayers (in the presence of 1-EBIO to maximize basolateral membrane K^+ conductance) were exposed on the apical aspect to escelating peptide concentrations. Maximal change in Isc (relative to the Isc prior to peptide exposure) was recorded following each increment in apical peptide concentration. […]

## CC[C@H](C)[C@H](NC(=O)CNC(=O)[C@H](CC(C)C)NC(=O)CNC(=O)[C@@H](NC(=O)[C@H](CCCNC(=N)N)NC(=O)[C@H](C)NC(=O)[C@@H]1CCCN1C(=O)[C@H](CCCCN)NC(=O)[C@H](CCCCN)NC(=O)[C@H](CCCCN)NC(=O)[C@@H](N)CCCCN)C(C)C)C(=O)N[C@H](C(=O)N[C@H](C(=O)N[C@H](C(=O)N[C@@H](CC(C)C)C(=O)N[C@H](C(=O)N[C@@H](CCSC)C(=O)N[C@H](C(=O)N[C@H](C(=O)N[C@@H](CCC(N)=O)C(=O)N[C@@H](CO)C(=O)N[C@@H](CO)C(=O)NCC(=O)N[C@@H](CO)C(=O)N[C@@H](CCCNC(=N)N)C(=O)N[C@@H](C)C(=O)O)[C@@H](C)O)[C@@H](C)O)[C@@H](C)O)C(C)C)[C@@H](C)O)[C@@H](C)O [SEQ ID No. 3, KKKKPARVGL GITTVLTMTT QSSGSRA, reference compound]
Cultured CF monolayers
  glutathione transport: helps restore glutathione transport
[1]
  number of aggregates: ≥ 12
  size of largest assemblies: ~36 kDa
MDCK cells
  increase in short circuit current (ISC) over that of C-K4-M2GlyR: approximately 50%
MDCK cells; MDCK monolayers, modified Hill equation fit, read-out: half maximal effect on Isc (EC50 / K1/2)
  EC50: 208 ± 6 µM
MDCK cells; fit of modified Hill equation, MDCK monolayers, 1-EBIO
  predicted IMAX: 24.3±0.5 μA cm^−2
MDCK cells; peptide at 500 μM
  Activity profile in MDCK cells: 15.9 at 500 μM μA/cm2
MDCK cells; ratio of EC50
  fold higher concentration required to support anion flux than SEQ ID No. 18: 4 fold
